In paper PMC5462532 (Structure(London, England:1993), 2017):

Molecular target: T1, His-Ub, the ubiquitin moiety of the UbcH7∼Ub conjugate in the crystal (human, UniProt P0CG47, in part, C-terminus isopeptide-linked to K86 of UbcH7)
T1 construct: ubiquitin, human, with His tag (His-Ub); Written alone for the contacts of the Ub moiety with the UBA-L domain of a symmetry-related HHARI; it stood there joined to UbcH7(C86K); source: E. coli, purified (Ni2+ pulldown, SEC); in the crystal as part of the conjugate m10
Experiment: crystal structure; HHARI 90-557 with UbcH7(C86K)-His-Ub mixed 1:1, hanging drop, PEG 5000 MME, HEPES pH 7.0, Tacsimate; Zn-SAD, 3.24 Å
Conditions: both partners purified

B1: HHARI (residues 90-557) (enzyme, human, UniProt Q9Y4X5 90-557, looked up)
chain: GPGHEQEEDYRYEVLTAEQILQHMVECIREVNEVIQNPATITRILLSHFNWDKEKLMERYFDGNLEKLFAECHVINPSKKSRTRQMNTRSSAQDMPCQICYLNYPNSYFTGLECGHKFCMQCWSEYLTTKIMEEGMGQTISCPAHGCDILVDDNTVMRLITDSKVKLKYQHLITNSFVECNRLLKWCPAPDCHHVVKVQYPDAKPVRCKCGRQFCFNCGENWHDPVKCKWLKKWIKKCDDDSETSNWIAANTKECPKCHVTIEKDGGCNHMVCRNQNCKAEFCWVCLGPWEPHGSAWYNCNRYNEDDAKAARDAQERSRAALQRYLFYCNRYMNHMQSLRFEHKLYAQVKQKMEEMQQHNMSWIEVQFLKKAVDVLCQCRATLMYTYVFAFYLKKNNQSIIFENNQADLENATEVLSGYLERDISQDSLQDIKQKVQDKYRYCESRRRVLLQHVHEGYEKDLWEYIED
notes: also called HHARI (in the structure sections); not shown: GST, N-terminal, cleaved
binding result: binds
